Structures are written as SMILES. Bounds are passed on as bounds.

Sequences of proteins named here, by UniProt entry; tags and fusion partners are left off. A line that says so, or that is headed by a name, gives the form on record, which may keep a tag or linker.
UniProt P13569, with tags, fused parts or gaps DEL508-508: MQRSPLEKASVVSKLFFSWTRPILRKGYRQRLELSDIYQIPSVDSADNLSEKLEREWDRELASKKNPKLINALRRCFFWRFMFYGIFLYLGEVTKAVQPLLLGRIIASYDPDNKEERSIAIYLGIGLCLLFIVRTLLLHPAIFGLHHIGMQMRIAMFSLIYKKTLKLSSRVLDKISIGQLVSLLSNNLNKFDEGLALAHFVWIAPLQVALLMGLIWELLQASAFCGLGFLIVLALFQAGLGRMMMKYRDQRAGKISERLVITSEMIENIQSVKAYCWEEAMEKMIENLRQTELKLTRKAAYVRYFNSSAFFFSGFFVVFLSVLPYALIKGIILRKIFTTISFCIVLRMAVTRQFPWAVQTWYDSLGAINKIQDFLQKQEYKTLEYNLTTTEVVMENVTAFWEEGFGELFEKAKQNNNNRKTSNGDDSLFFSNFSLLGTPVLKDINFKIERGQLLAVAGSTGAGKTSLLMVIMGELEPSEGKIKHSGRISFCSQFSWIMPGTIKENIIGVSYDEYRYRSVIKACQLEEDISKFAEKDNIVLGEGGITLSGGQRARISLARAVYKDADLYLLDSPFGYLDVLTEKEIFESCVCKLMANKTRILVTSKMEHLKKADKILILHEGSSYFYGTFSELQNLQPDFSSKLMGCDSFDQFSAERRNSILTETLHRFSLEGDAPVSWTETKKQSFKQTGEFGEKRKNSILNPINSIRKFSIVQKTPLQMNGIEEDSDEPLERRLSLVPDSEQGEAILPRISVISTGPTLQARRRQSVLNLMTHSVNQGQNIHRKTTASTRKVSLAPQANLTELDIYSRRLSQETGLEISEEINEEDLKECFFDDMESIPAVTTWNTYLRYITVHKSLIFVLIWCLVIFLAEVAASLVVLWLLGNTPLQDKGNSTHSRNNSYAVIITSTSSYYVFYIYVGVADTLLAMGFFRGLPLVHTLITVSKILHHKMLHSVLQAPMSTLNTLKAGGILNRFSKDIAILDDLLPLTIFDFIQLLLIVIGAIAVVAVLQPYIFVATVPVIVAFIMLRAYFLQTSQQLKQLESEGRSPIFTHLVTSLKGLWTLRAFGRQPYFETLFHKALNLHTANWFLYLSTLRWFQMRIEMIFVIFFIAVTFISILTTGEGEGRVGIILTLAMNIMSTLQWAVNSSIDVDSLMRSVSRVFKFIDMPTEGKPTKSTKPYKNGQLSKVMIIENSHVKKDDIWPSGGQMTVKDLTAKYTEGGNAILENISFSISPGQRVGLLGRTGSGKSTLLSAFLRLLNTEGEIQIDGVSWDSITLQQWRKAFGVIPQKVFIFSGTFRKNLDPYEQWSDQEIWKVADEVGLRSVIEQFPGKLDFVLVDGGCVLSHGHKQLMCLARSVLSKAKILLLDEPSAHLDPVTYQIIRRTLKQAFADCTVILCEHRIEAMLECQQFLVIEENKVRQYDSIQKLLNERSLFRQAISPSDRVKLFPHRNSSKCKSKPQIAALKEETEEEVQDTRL

This experiment concerns the target T1, CFTR (Homo sapiens, UniProt P13569, DEL508-508).
T1 construct: endogenous in cells; host or cells: primary human bronchial epithelial cells from CF subjects (F508del/MF-HBE), differentiated at air-liquid interface
The experiment is described as follows: HBE assay: Ussing chamber assay of CFTR-mediated short-circuit currents. As to conditions: read-out: HBE Activity at 10 μM (%). The format is cell-based. The protocol:
1. Ussing Chamber Assay of CFTR-Mediated Short-Circuit Currents
Ussing chamber experiments were performed using human bronchial epithelial (HBE) cells derived from CF subjects heterozygous for F508del and a minimal function CFTR mutation (F508del/MF-HBE) and cultured as previously described (Neuberger T, Burton B, Clark H, Van Goor F Methods Mol Biol 2011:741:39-54). After four days the apical media was removed, and the cells were grown at an air liquid interface for >14 days prior to use.
To isolate the CFTR-mediated short-circuit (ISC) current, F508del/MF-HBE grown on Costar® Snapwell™ cell culture inserts were mounted in an Ussing chamber and the transepithelial ISC was measured under voltage-clamp recording conditions (Vhold=0 mV) at 37° C. […] The CFTR-mediated ISC (μA/cm^2) for each condition was determined from the peak forskolin response to the steady-state current following inhibition. […]
The activity of the CFTR corrector compounds on the CFTR-mediated ISC was determined in Ussing chamber studies as described above. […]
To isolate the CFTR-mediated short-circuit (ISC) current, F508del/MF-HBE grown on Costar® Snapwell™ cell culture inserts were mounted in an Ussing chamber and the transepithelial ISC was measured under voltage-clamp recording conditions (Vhold=0 mV) at 37° C. […]

Take `COC[C@H](C(C)C)N(C)c1cncc(CN2C(=O)c3cccc(c3)S(=O)(=O)Nc3nc(cc(-c4c(C)cccc4C)n3)OC[C@H]2CC(C)(C)C)n1` [Compound 1530]: the activation at 10 µM was over 60%.

Take `Cc1cccc(C)c1-c1cc2nc(n1)NS(=O)(=O)c1cccc(c1)C(=O)N(Cc1cncc(N3CC[C@@H]3C(C)C)n1)[C@H](CC(C)(C)C)CO2` [Compound 1544]: the activation at 10 µM is over 60%.

For the origin of these results see patent US20240150377A1, “MODULATORS OF CYSTIC FIBROSIS TRANSMEMBRANE CONDUCTANCE REGULATOR” (VERTEX PHARMACEUTICALS INCORPORATED, priority 2020, published 2024).
